This is an account of results in US20110236822A1, “METHOD OF TREATING SEASONED DEVELOPER SOLUTION” (priority 2010, published 2011).

The data set in a line: Treatment of IR dye with oxidative and reducing reagents to degrade the dye (TABLE I). The class given is physicochemical. The following applies: 0.3% IR dye 66e in methanol; Heat.

`CC(=O)OOC(C)(C)C`: the “Change Noticed” value is reported as “Dye bleached pink”.
